{"sequences": {"note": "The chains behind the UniProt entries cited, without tags or fusion partners.", "UniProt P08238, whole entry": "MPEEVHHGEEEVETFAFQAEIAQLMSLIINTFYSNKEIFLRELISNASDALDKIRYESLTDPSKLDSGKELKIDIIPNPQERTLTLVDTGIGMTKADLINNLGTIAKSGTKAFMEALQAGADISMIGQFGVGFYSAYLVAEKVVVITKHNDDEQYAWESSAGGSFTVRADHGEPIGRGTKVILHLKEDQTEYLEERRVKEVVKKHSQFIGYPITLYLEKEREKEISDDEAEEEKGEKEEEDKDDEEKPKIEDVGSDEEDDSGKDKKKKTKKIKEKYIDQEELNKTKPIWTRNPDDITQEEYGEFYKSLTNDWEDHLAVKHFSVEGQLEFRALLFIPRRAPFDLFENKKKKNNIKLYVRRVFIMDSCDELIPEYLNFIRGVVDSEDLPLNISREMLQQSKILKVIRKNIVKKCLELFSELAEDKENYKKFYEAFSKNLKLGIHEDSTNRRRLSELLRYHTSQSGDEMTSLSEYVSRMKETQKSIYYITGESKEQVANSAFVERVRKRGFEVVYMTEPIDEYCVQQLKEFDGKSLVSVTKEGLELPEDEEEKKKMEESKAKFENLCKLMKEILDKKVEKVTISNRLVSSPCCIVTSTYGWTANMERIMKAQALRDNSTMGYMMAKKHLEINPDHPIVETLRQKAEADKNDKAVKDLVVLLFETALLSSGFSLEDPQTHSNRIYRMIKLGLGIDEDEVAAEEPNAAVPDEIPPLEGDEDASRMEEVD"}, "source": "paper PMC5789826", "about": "“Structure-guided design of an Hsp90β N-terminal isoform-selective inhibitor” (Nature Communications, 2018)", "key": {"Hsp90β": {"target": "Hsp90β (Homo sapiens, UniProt P08238)", "assay": "Fluorescence polarization assay (FITC-GDA tracer displacement), Hsp90β", "format": "binding", "settings": "for Kd: Kd Hsp90β, fluorescence polarization, apparent Kd"}, "Hsp90α": {"target": "Hsp90α (Homo sapiens, UniProt P07900)", "assay": "Fluorescence polarization assay (FITC-GDA tracer displacement), Hsp90α", "settings": "apparent Kd"}}, "data": [{"compound": "CC(C)c1cc(C(=O)N2Cc3ccccc3C2)c(O)cc1C=O", "note": "[Compound 4]", "values": [{"measurement": "selectivity for Hsp90β", "setting": "Hsp90β; Hsp90β versus Hsp90α, from Kd values", "result": "~ 4 fold"}, {"measurement": "Kd", "setting": "Hsp90β", "result": "350 ± 130", "unit": "nM"}, {"measurement": "Kd", "setting": "Hsp90β; value in nM", "result": 310, "unit": "nM"}]}, {"compound": "CC(C)c1cc(C(=O)N2Cc3ccccc3C2)c(O)c(CO)c1O", "note": "[Compound 5]", "values": [{"measurement": "selectivity over the other isoforms", "setting": "Hsp90β; Hsp90β versus other Hsp90 isoforms", "result": "> 25", "unit": "fold"}, {"measurement": "Kd", "setting": "Hsp90α", "result": "> 100", "unit": "µM"}]}]}
